Chains of the proteins cited; added tags and fusions are not shown.
UniProt P33535, whole entry H297A: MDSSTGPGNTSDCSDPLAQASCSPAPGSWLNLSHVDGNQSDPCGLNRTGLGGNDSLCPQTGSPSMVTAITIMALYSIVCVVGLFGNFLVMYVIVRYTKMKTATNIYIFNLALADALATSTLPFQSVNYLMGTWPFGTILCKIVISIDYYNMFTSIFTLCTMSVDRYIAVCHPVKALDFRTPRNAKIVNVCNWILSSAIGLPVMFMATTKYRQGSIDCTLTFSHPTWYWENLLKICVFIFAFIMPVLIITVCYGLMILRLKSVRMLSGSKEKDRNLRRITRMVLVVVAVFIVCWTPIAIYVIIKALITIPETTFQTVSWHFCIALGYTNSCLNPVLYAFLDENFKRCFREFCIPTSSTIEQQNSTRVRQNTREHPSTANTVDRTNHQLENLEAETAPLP

In publication PMC6932940, “Modulation of μ‐opioid receptor activation by acidic pH is dependent on ligand structure and an ionizable amino acid residue” (British Journal of Pharmacology, 2019):

Target: MOR‐H297^6.52A (μ‐opioid receptor mutated at H297^6.52 to A) (Rattus norvegicus, UniProt P33535, H297A)
Assay: biochemical
Set-up: expressed in transfected cells; linearized pcDNA3.1)
Details: pH 7.4, read-out: E max (maximum intrinsic activity), [35S]-GTPγS binding

Compound `C[C@@H](NC(=O)[C@@H](N)Cc1ccc(O)cc1)C(=O)NCC(=O)N(C)[C@@H](Cc1ccccc1)C(=O)NCCO` [DAMGO, [D‐Ala2,N‐Me‐Phe4,Gly5‐ol]‐enkephalin] has an Emax of 114 ± 3.5%.
